Tested on: NF-κB
Type: cell-based, human
Protocol: Methods. […] Immunoblot analysis (30 μg of protein per condition) was performed to detect cleavage of caspase-12 and PARP, levels of IκB c, phospho-IκBα, p65, p100/p52, as well as expression of NF-κB downstream anti-apoptotic proteins. Parallel studies were performed in two established CLL cell lines (JVM-3 and MEC-2, DSMZ).

For `CC(C)C[C@H](NC(=O)[C@H](Cc1ccccc1)NC(=O)c1cnccn1)B(O)O` [bortezomib, [(1R)-3-methyl-1-[[(2S)-1-oxo-3-phenyl-2-[(pyrazinylcarbonyl)amino]propyl]amino]butyl]boronic acid], which “romidepsin-induced NF-κB activation” value is on record?
The value was “abrogated”.

— patent US20090105200A1, “Combination therapy” (priority 2007, published 2009)
